Data taken from article PMC8433439, “Bivalent ligands promote endosomal trafficking of the dopamine D3 receptor-neurotensin receptor 1 heterodimer” (Communications Biology, 2021).

Sequences of proteins named here, by UniProt entry; tags and fusion partners are left off.
UniProt P30989, whole entry: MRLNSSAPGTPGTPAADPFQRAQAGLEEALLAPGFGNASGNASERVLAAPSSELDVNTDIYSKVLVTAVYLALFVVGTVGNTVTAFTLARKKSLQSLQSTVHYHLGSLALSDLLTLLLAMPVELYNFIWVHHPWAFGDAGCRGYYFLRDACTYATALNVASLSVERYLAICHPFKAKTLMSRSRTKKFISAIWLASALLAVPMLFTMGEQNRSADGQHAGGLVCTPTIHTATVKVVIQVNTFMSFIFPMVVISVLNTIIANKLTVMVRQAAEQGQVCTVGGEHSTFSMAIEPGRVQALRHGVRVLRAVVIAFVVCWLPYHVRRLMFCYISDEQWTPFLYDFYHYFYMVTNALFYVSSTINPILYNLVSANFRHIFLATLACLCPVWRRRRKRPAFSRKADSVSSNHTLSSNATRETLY

Assays:
[1] = biological target: wild-type human neurotensin receptor 1 (human) (UniProt P30989); test: radioligand binding; saturation binding experiments on transfected β-arrestin HEK293 cells (DiscoverX) used for the PathHunter assay; radioligand not named there
[2] = biological target: NTSR1-ProLink (NTSR1 fused in frame with the PK1 sequence) (human) (UniProt P30989); test: as above
[3] = biological target: wild-type human neurotensin receptor 1 (human) (UniProt P30989)
[4] = biological target: NTSR1-ProLink (NTSR1 fused in frame with the PK1 sequence) (human) (UniProt P30989)

## NT(8-13), peptide NTSR1 agonist
[1]
  Kd: 1.4 nM
[2]
  Kd: 1.9 nM
[3]
  β-arrestin2 recruitment detected at D3R-ProLink in cells coexpressing wild-type NTSR1 (DiscoverX enzyme fragment complementation), EC50 of NT(8-13): 1.5 nM
[4]
  β-arrestin2 recruitment to NTSR1-ProLink (DiscoverX enzyme fragment complementation), EC50 of NT(8-13): 0.58 nM
